Earlier results in patent US7235142B2, “Non-toxic corrosion-protection rinses and seals based on cobalt” (University of Dayton, priority 2002, dated 2007).

Settings: pH 7

Substance: Ammonium fluorogermanate
- Solubility in Water: ~1 × 10^0^ mole/L
